Data reported in patent publication US20250084372A1, “IN VITRO DERIVATION OF GONADAL SOMATIC CELLS” (Conception Bisosciences, Inc., priority 2020, published 2025).

System: ovarian somatic cells (OSCs)
Test: OSC induction with different BMP isoforms, marker qPCR
Assay type: cell-based, human
Conditions: 20 ng/mL BMP in granulosa double medium
Protocol: Gonadal somatic cells were induced in granulosa double medium comprising different BMP isoforms, and the expression of bipotential gonadal markers as well as that of granulosa markers were measured in the resulting cells.
The replated cells from the second intermediate population were incubated in the granulosa double medium (also referred to as gonadal induction medium or OSC induction medium) according to Table 17, with 20 ng/mL of either BMP4, BMP2, BMP 7 or BMP15. The expression of bipotential gonadal markers (WT1, LHX9, GADD45G and GATA4) as well as granulosa markers (FOXL2, NR1H4 and KITLG) were measured by qPCR in the resulting cells.

B1: BMP2: BMP isoform in gonadal induction medium (protein, UniProt P12643 283-396, looked up)
Bone morphogenetic protein 2: QAKHKQRKRLKSSCKRHPLYVDFSDVGWNDWIVAPPGYHAFYCHGECPFPLADHLNSTNHAIVQTLVNSVNSKIPKACCVPTELSAISMLYLDENEKVVLKNYQDMVVEGCGCR
- expression of bipotential gonadal markers (WT1, LHX9, GADD45G, GATA4) compared to BMP4: comparable or higher
- expression of granulosa markers (FOXL2, NR1H4, KITLG) compared to BMP4: comparable or higher
